Measurements taken from patent US4465692A (Nelson Research & Development Company, priority 1982, dated 1984).

The chains behind the UniProt entries cited, without tags or fusion partners.
UniProt P61169, whole entry: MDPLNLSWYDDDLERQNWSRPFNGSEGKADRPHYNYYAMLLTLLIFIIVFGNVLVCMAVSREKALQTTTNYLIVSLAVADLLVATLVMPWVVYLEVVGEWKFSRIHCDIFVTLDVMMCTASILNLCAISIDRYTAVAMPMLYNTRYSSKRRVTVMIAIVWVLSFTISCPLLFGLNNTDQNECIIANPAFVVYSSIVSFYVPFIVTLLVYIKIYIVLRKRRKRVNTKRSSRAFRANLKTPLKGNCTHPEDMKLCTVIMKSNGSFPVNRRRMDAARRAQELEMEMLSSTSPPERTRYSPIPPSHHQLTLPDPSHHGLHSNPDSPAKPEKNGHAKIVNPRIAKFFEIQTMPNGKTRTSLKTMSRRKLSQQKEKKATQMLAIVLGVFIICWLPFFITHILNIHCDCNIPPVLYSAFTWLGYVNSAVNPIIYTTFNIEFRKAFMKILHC

What was measured:
D-2 receptor = D-2 receptor (Rattus norvegicus, UniProt P61169); assay: biochemical
dopamine receptor = dopamine receptor (Rattus norvegicus, UniProt P61169); assay: biochemical

## CCCN(CCc1ccccc1)C1CCc2c(O)cccc2C1 (centres unmarked) [PPHT, 2-(N-phenylethyl-N-propylamino)-5-hydroxytetralin]
D-2 receptor
  IC50: 40 nM
Dopamine receptor
  IC50: 3 nM
